# Measurements from patent US11746124B2, “Chemoselective thiol-conjugation with alkene or alkyne-phosphonamidates” (FORSCHUNGSVERBUND BERLIN E.V., priority 2016, dated 2023).
# Legend:
# Assay in all cases: AFC immunostaining of fixed cells, confocal microscopy
# Format in all cases: cell-based
# Conditions in all cases: AFC 5 μg/mL, 1 h at RT
# [1] = test system: Her2-overexpressing cell line SKBR3
# Method: (§1) In a similar manner, as described above under “Staudinger-induced thiol addition with alkynyl-phosphonites for the generation of Antibody Drug Conjugates (ADCs)” the fluorescent dye Cy5 was conjugated to Trastuzumab to generate an antibody-fluorophore conjugate. Synthesis of Cy5-O-ethyl-P-alkynyl-phosphonamidate was conducted as described above under “Introduction of the alkyne-phosphonamidate moiety by generic building blocks via an amide bond”. The obtained Phosphonamidate-AFC conjugates were evaluated by immunostaining of two different Her2-overexpressing cell lines BT474 and SKBR3. The Her2-non overexpressing cell line MDAMB468 was used as a control to proof Her2 selectivity.
# (§2) BT474, SKBR3 and MDAMB468 were seeded on sterile cover slips and incubated ON at 37° C., 5% CO2 for cell attachment. Cells were washed three times with 1×PBS prior to fixation for 10 min in 1×PBS/4% PFA (formaldehyde). Fixation was stopped by the addition of an equal volume 1×PBST (PBS+0.05% Tween20) followed by two more washes with PBST. AFCs were added to a final concentration of 5 μg/mL and incubated for 1 h at RT. Unbound AFC was removed by three washes with PBS.
# (§3) Images were acquired on a Leica SP5 confocal microscopy system equipped with a 63×1.40 Oil immersion objective. Laserlines 405 nm and 594 nm were used in combination with standard DAPI and Cy5 filter settings. Image processing was carried out with ImageJ 1.5.1 h software extended by the Fiji processing package.
# [2] = test system: Her2-non overexpressing cell line MDAMB468
# Method: as §1, §2, §3
# [3] = test system: Her2-overexpressing cell line BT474
# Method: as §1, §2, §3
substance,measurement,setting,value
Trastuzumab-Amidate-Cy5,immunostaining of fixed cells,[1],clear localization to the plasma membrane
same,immunostaining of fixed cells,[2],no staining
same,immunostaining of fixed cells,[3],clear localization to the plasma membrane
